# Source: PMC3728351, “Allosteric Inhibitors of the NS3 Protease from the Hepatitis C Virus” (PLoS ONE, 2013)
# Test: in vitro
# Format: cell-based
# Conditions: human
smiles,measurement,value
OCCN(CCO)c1nc(N2CCCCC2)c2nc(N(CCO)CCO)nc(N3CCCCC3)c2n1 [Compound 2],CC50,80 µM
